Data on one compound can be found in article PMC6471618, “Comparison of the Sulfonamide Inhibition Profiles of the α-Carbonic Anhydrase Isoforms (SpiCA1, SpiCA2 and SpiCA3) Encoded by the Genome of the Scleractinian Coral Stylophora pistillata” (Marine Drugs, 2019).

Protein sequences, listed by entry. Tags and fused reporters are not part of them.
UniProt A0A1B0Y357, entry or part of it: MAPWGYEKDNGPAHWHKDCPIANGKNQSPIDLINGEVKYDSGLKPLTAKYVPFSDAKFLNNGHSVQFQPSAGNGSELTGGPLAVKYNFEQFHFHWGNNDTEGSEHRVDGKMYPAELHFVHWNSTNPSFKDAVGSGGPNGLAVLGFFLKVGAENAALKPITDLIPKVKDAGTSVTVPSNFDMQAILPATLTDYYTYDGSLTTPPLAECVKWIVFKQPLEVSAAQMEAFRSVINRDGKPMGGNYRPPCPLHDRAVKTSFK

In this test the target is SpiCA3 (Stylophora pistillata, UniProt A0A1B0Y357). Type of test: biochemical. As to conditions: authors' grading of the KI values of Table 1.

As to `CCN[C@H]1C[C@H](C)S(=O)(=O)c2sc(S(N)(=O)=O)cc21` [DZA, Dorzolamide], the “SpiCA3 inhibition, in words” value is recorded as “low potency inhibitors”.
